Pemphigus Ab inh – inhibitors of pemphigus antibody binding to human desmoglein-3; P32926; DSG3-coupled beads, scFv-anti-DSG3-GFP binding, flow cytometry; hits give low values; binding (percent of control), % at 10 µM; actives 0.48% (n = 310,000);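 active = binding more than 3 SD below its plate's average and above zero; inconclusive = below that plate limit but binding exactly zero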;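 note: hits lower antibody fragment binding to DSG3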
PABP polyA inh – blocks human PABP binding to poly(A) RNA; P11940; fluorescence polarization; calls only at 35 µM; actives 1% (n = 290,000); AID 2014;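 note: calls also rest on retests at 20 µM and on dose response follow-up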
UUG fidelity – modulators of yeast start codon fidelity, primary screen, whole organism, S. cerevisiae, single point, plate reader; activity score, % at 18.7 µM; actives 0.13% (n = 350,000); S. cerevisiae UUG-firefly luciferase reporter, luminescence/redox ratio;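 active = replicate mean at a twofold rise or more, about +100% in these data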;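 also: firefly luciferase made from a UUG start codon reports start codon fidelity; reporter light over untreated wells divided by growth signal over untreated wells; some hits fall short of that in this replicate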
MLLE-PAM2 inh – blocks PAM2 peptide binding to the PABP1 MLLE domain | P11940 | GST-MLLE / FITC-PAM2 fluorescence polarization | inhibition, % at 20 µM | actives 0.36% (n = 360,000) | AID 588489; in the data active = inhibition above about 35%, passing the limit was not always enough
eIF4H inh – inhibitors of RNA binding by human eIF4H. Q15056. eIF4H fluorescence polarization binding assay. inhibition, % at 35 µM. actives 0.94% (n = 290,000). AID 2012;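 note: calls also rest on retests at 20 µM and on dose response follow-up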
Each line names hits and unclear results; the compound was inactive in the other large screens. Shown are actives, neighbours in structure and some others; about 1.5% of the full set was active somewhere. Unless noted, the rule behind the calls is not given here.

C=CCOC(=O)C(C#N)c1nc2ccccc2nc1N1CCN(Cc2ccc3c(c2)OCO3)CC1 (configuration not stated)	Pemphigus Ab inh inconclusive, PABP polyA inh active, eIF4H inh 69.4
CC1CN(c2nc3ccccc3nc2C(C#N)C(=O)NCc2ccc3c(c2)OCO3)CC(C)O1 (configuration not stated)	PABP polyA inh active
CCC(CC)COC(=O)C(C#N)c1nc2ccccc2nc1N1CCN(CC)CC1 (configuration not stated)	PABP polyA inh active, eIF4H inh 80.9
CCCCNC(=O)C(C#N)c1nc2ccccc2nc1N1CCN(Cc2ccc3c(c2)OCO3)CC1 (configuration not stated)	none (no result: PABP polyA inh, eIF4H inh)
CCCNC(=O)C[C@H]1CC[C@@H]2[C@@H](COc3ccc(NC(=O)c4ccccc4)cc3C(=O)N2C)O1	none (no result: Pemphigus Ab inh, PABP polyA inh, MLLE-PAM2 inh, eIF4H inh)
CC(C)Cn1c(SCC(=O)c2c(N)n(C)c(=O)n(C)c2=O)nc2ccccc21	none
COCCn1c(SCC(=O)c2c(N)n(C)c(=O)n(C)c2=O)nc2ccccc21	PABP polyA inh active, eIF4H inh 3.0
CC(=O)N(C)C[C@H]1Oc2cc(C#Cc3ccncc3)ccc2S(=O)(=O)N([C@H](C)CO)C[C@@H]1C	none (no result: Pemphigus Ab inh, PABP polyA inh, MLLE-PAM2 inh, eIF4H inh)
O=C1CC(c2ccc(O)c(O)c2)Oc2c1ccc(O)c2O (configuration not stated)	PABP polyA inh active, eIF4H inh 94.3
N#CC(=C=[N-])c1nc2ccccc2nc1-[n+]1cccc(NC(=O)c2cccs2)c1	Pemphigus Ab inh 50.9, PABP polyA inh active, eIF4H inh 54.3
N#CC(=C=[N-])c1nc2ccccc2nc1-[n+]1cccc(NC(=O)c2ccccc2)c1	none (no result: UUG fidelity)
CCSC1=N/C(=C\c2ccc3c(c2)OCO3)C(=O)S1	none
C=CCSC1=N/C(=C\c2cc(OC)c3c(c2)OCO3)C(=O)S1	eIF4H inh 57.4
COc1ccc(NC(=O)c2cccc(S(=O)(=O)N3CCOCC3)c2)cc1	none
O=C(O)COc1ccccc1/C=N/NC(=O)c1cccc(S(=O)(=O)N2CCOCC2)c1	eIF4H inh 2.2 (no result: Pemphigus Ab inh)
COc1ccc(NC(=O)c2cccc(S(=O)(=O)N3CCOCC3)c2)cn1	PABP polyA inh active, eIF4H inh 73.1
CC[n+]1ccc(C)c2cc(S(=O)C(F)(F)F)ccc21 (configuration not stated)	PABP polyA inh active, eIF4H inh inconclusive (no result: Pemphigus Ab inh)
S=C(Nc1ccc2c(c1)OCO2)Nc1ccc2c(c1)OCO2	PABP polyA inh active, eIF4H inh 111.8 (no result: UUG fidelity)
c1cc(CNc2ccc3c(c2)OCO3)ccn1	MLLE-PAM2 inh 79.5
Cc1cc(SCC(=O)N/N=C/c2ccc(O)c(O)c2O)c(C)cc1Br	PABP polyA inh active, eIF4H inh 92.6
Cc1cccc(NC(=S)NNC(=O)c2csc3c2CCCC3)c1	MLLE-PAM2 inh 38.3
Cc1ccc(C(=O)N2CCN(C(=O)c3ccccc3)C2c2ccc(N(C)C)cc2)cc1 (configuration not stated)	none
Cc1ccc(C(=O)N2CCn3c(C)ccc3C2C)cc1 (configuration not stated)	PABP polyA inh active, eIF4H inh 64.5 (no result: UUG fidelity)
CO[C@H]1CN(C)C(=O)c2cc(NC(=O)c3ccc4c(c3)OCO4)ccc2OC[C@@H](C)NC[C@H]1C	none (no result: Pemphigus Ab inh, PABP polyA inh, MLLE-PAM2 inh, eIF4H inh)
COC(=O)CC1C(=O)NCCN1C(=O)Nc1ccc(Cl)cc1 (configuration not stated)	none (no result: UUG fidelity)
CCc1ccc(NC(=S)N2CCNC(=O)C2CC(=O)OC)cc1 (configuration not stated)	PABP polyA inh active (no result: UUG fidelity)
C[C@H](CO)N1C[C@H](C)[C@@H](CN(C)S(=O)(=O)c2ccc(Cl)cc2)Oc2c(NS(=O)(=O)c3ccc(Cl)cc3)cccc2C1=O	none (no result: Pemphigus Ab inh, PABP polyA inh, MLLE-PAM2 inh, eIF4H inh)
C[C@H](CO)N1C[C@H](C)[C@H](CN(C)C(=O)Cc2cccnc2)Oc2ncc(C#Cc3ccccc3F)cc2C1=O	none (no result: Pemphigus Ab inh, PABP polyA inh, MLLE-PAM2 inh, eIF4H inh)
c1ccc(CSc2nccc(-c3ccco3)n2)cc1	none (no result: PABP polyA inh, eIF4H inh)
Cc1ccc(C)n1-c1nccc(-c2cccs2)n1	PABP polyA inh active, eIF4H inh 90.6
Cc1ccc(C)n1-c1nccc(-c2ccco2)n1	PABP polyA inh active, eIF4H inh 54.3
C[C@H]1CN([C@@H](C)CO)C(=O)Cc2cc(NC(=O)C3CC3)ccc2O[C@@H]1CN(C)C(=O)Nc1ccccc1	none (no result: Pemphigus Ab inh, PABP polyA inh, MLLE-PAM2 inh, eIF4H inh)
CCCc1nnc(NC(=O)c2c(O)c3cccc4c3n(c2=O)CCC4)s1	PABP polyA inh active, eIF4H inh 95.9 (no result: Pemphigus Ab inh, UUG fidelity, MLLE-PAM2 inh)
O=C(NCC[C@H]1CC[C@H](NC(=O)C2CCCC2)[C@H](CO)O1)c1ccc(F)cc1	none (no result: Pemphigus Ab inh, PABP polyA inh, MLLE-PAM2 inh, eIF4H inh)
C[C@H]1CN([C@@H](C)CO)C(=O)c2cccc(NS(=O)(=O)c3cn(C)cn3)c2O[C@@H]1CN(C)C(=O)Nc1ccccc1	none (no result: Pemphigus Ab inh, PABP polyA inh, MLLE-PAM2 inh, eIF4H inh)
COC(=O)c1ccc(C2C(Oc3ccc(OC)cc3)C(=O)N2CCc2ccc(OC)c(OC)c2)cc1 (configuration not stated)	Pemphigus Ab inh 72.5
NC(=O)c1ccc(NC(=O)COC(=O)c2ccc(Cl)nc2)cc1	none (no result: PABP polyA inh, eIF4H inh)
NC(=O)c1ccsc1NC(=O)COC(=O)c1ccc(Cl)nc1	Pemphigus Ab inh 58.8 (no result: PABP polyA inh, eIF4H inh)
Cc1noc(C)c1S(=O)(=O)N(C)C[C@@H]1Oc2ccc(N(C)C)cc2CC(=O)N([C@H](C)CO)C[C@H]1C	none (no result: Pemphigus Ab inh, PABP polyA inh, MLLE-PAM2 inh, eIF4H inh)
CCN(CC)c1ncccc1C(=O)NCc1cccs1	none (no result: UUG fidelity)
Cc1ccc(C)c(Nc2ncccc2C(=O)NCc2cccs2)c1	PABP polyA inh active, eIF4H inh inconclusive
COc1cccc(S(=O)(=O)N(C)C[C@@H]2Oc3ncc(-c4cccc(C(=O)N(C)C)c4)cc3C(=O)N([C@@H](C)CO)C[C@@H]2C)c1	none (no result: Pemphigus Ab inh, PABP polyA inh, MLLE-PAM2 inh, eIF4H inh)
O=C(N/N=C/c1sc(=O)n(-c2ccccc2)c1Cl)c1ccccc1	PABP polyA inh active, eIF4H inh 65.1 (no result: UUG fidelity)
O=C(C[C@H]1CC[C@@H](NC(=O)C2CCOCC2)[C@@H](CO)O1)NCC1CCCCC1	none (no result: Pemphigus Ab inh, PABP polyA inh, MLLE-PAM2 inh, eIF4H inh)
COC(=O)C1=C(O)/C(=C\c2ccc(O)c(OC)c2)N=C1C	PABP polyA inh active, eIF4H inh 56.2
C[C@@H]1CN([C@H](C)CO)S(=O)(=O)c2ccc(C3=CCCC3)cc2O[C@@H]1CN(C)Cc1ccccc1F	none (no result: Pemphigus Ab inh, PABP polyA inh, MLLE-PAM2 inh, eIF4H inh)
O=C(O)c1cccc(N2C(=O)c3cc([N+](=O)[O-])cc4cc([N+](=O)[O-])cc(c34)C2=O)c1	PABP polyA inh active, eIF4H inh 68.2
O=C(c1ccc(S(=O)(=O)c2ccccc2)cc1)N1CCc2ccccc2C1	none (no result: UUG fidelity)
O=C(c1ccc([N+](=O)[O-])cc1)N1CCc2ccccc2C1	PABP polyA inh active, eIF4H inh 4.6 (no result: UUG fidelity)
CCCCn1c(-c2cccnc2)nc2cc3[nH]c(=O)c(C(C)C)nc3cc21	PABP polyA inh active
CCCCn1c(-c2ccc(C(C)(C)C)cc2)nc2cc3[nH]c(=O)c(C(C)C)nc3cc21	PABP polyA inh active
COc1ccc(C(=O)N/N=C(\C)c2ccc3c(c2)C2C=CCC2C(c2ccccc2)N3)cc1 (configuration not stated)	none (no result: UUG fidelity)
O=C(O)C1Nc2ccc(Br)cc2C2C=CCC12 (configuration not stated)	PABP polyA inh active, eIF4H inh 105.0
O=C(O)c1ccc2c(c1)[C@@H]1C=CC[C@@H]1[C@H](c1ccccn1)N2	MLLE-PAM2 inh 42.1 (no result: Pemphigus Ab inh, PABP polyA inh, eIF4H inh)

Screens (PubChem BioAssay)
